Chains of the proteins cited; added tags and fusions are not shown. Residues count along the entry.
UniProt P56817, 75-416: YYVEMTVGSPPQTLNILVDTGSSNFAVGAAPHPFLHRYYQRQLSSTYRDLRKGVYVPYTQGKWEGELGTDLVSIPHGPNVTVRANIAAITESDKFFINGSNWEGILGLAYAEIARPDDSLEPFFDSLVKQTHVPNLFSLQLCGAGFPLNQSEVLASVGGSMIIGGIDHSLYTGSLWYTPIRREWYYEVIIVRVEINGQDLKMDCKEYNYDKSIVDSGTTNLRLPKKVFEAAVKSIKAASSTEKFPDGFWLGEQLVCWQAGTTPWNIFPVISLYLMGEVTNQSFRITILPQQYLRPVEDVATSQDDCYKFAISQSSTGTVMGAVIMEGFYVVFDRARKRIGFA
UniProt Q9Y5Z0, 63-473: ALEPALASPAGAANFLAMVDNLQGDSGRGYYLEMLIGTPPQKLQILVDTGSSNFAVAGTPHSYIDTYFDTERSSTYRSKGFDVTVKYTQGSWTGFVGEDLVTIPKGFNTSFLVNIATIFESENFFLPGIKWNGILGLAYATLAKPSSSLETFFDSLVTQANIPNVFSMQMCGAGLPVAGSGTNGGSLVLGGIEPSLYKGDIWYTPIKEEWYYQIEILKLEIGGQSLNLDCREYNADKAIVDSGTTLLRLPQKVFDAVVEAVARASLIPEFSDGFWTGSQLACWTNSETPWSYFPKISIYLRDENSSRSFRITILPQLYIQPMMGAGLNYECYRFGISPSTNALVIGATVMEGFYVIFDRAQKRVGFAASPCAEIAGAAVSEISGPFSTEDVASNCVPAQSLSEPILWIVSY

According to US9499502B2, “5-substituted iminothiazines and their mono- and dioxides as BACE inhibitors, compositions, and their use” (Merck Sharp & Dohme Corp., priority 2011, dated 2016):

What was measured:
[1] = target: soluble human BACE1 catalytic domain (Homo sapiens (Human), UniProt P56817); assay: BACE1 HTRF FRET Assay
[2] = target: purified human autoBACE-2 (Homo sapiens (Human), UniProt Q9Y5Z0); assay: BACE-2 Assay (BACE-HTRF assay); type: biochemical; details: Ki calculated from IC50 using the Cheng-Prusoff equation; read-out: BACE2 Ki

Structure (SMILES)	Ki ([1]; BACE1 Ki (nM)) [nM]	other results
COc1ccc(C(=O)Nc2ccc(F)c([C@]3(C)CS(=O)(=O)C(C)(c4ccccc4F)C(=N)N3)c2)nc1 (single isomer, unassigned) [Example 9do-b]	–	Ki ([1]; BACE1 Ki (nM), Ki calculated from IC50 using the Cheng-Prusoff equation): 20.8 nM
Cc1nc2ccc(CC3(C)C(=N)N[C@](C)(c4cc(F)ccc4F)CS3(=O)=O)cc2o1 (single isomer, unassigned) [Example 32c-a]	3590	–
Cc1nc2ccc(CC3(C)C(=N)N[C@](C)(c4cc(F)ccc4F)CS3(=O)=O)cc2o1 (single isomer, unassigned) [Example 32c-b]	2310	–
COCC1(C)C(=N)N[C@](C)(c2cc(F)ccc2F)CS1(=O)=O (single isomer, unassigned) [Example 32d-a]	2010	–
COCC1(C)C(=N)N[C@](C)(c2cc(F)ccc2F)CS1(=O)=O (single isomer, unassigned) [Example 32d-b]	2910	–
COc1ccc(C(=O)Nc2ccc(F)c([C@]3(C)CS(=O)(=O)[C@@](C)(c4ccccc4F)C(=N)N3)c2)nc1 [Example 9do-a]	–	Ki ([1]; read-out: BACE1 Ki, Ki calculated from IC50 using the Cheng-Prusoff equation): 18.3 nM
CC1(C)C(=N)N[C@](C)(c2sc(-c3cnc(-c4ccc(F)cc4)o3)cc2Cl)CS1(=O)=O [Example 27v]	–	Ki [2]: ≤ 10 nM

Where two headings read alike, the source gives them in different places.
